Target: purified full length human recombinant ERβ (Homo sapiens, UniProt Q92731)
Experiment: ERβ competitive binding assay

Protein sequences, listed by entry. Tags and fused reporters are not part of them.
UniProt Q92731, whole entry: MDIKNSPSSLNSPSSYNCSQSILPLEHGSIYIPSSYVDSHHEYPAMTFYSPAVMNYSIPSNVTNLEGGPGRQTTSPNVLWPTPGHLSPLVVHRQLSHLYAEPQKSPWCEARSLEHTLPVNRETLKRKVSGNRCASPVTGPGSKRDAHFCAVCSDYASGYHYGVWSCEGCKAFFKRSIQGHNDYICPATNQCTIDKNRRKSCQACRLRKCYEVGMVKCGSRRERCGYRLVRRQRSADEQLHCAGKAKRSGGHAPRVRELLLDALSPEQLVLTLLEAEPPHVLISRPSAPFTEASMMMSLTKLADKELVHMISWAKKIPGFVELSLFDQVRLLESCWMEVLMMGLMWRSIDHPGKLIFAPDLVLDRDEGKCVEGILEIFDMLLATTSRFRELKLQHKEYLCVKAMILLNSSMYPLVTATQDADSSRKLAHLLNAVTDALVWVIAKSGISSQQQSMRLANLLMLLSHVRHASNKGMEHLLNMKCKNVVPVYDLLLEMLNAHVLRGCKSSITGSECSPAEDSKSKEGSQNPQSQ

## CC(C)=CCc1c(O)cc(O)c2c(=O)cc(-c3ccc(O)cc3)oc12 [8-PA, 8-Prenylapigenin]
  RBA β/α: 2.7
